Source: patent publication US9522910B2, “Protein kinase inhibitors (variants), use thereof in treating oncological diseases and a pharmaceutical composition based thereon” (Obshchestvo s ogranichennoy otvetstvennostyou “Fusion …, priority 2011, dated 2016)
pIC50: −log10 of the molar value.

System: K562 human chronic myelogenous leukemia cells
Test: Antiproliferative activity on K562 cells (MTT)
Details: read-out: K562 IC50; compound concentration that causes 2-times reduction of viable cells; 3 days
Protocol: Moreover, antiproliferative activity of the compounds of the present invention can be studied on K562 human chronic myelogenous leukemia cells.
Human myelogenous leukemia K562 cells K562 were cultivated in RPMI 1640 growth medium. K562 cells were transferred to 96-well plated in duplicated (final concentration 2×10^4 cells/ml) and testing compound solution in growth medium was added at different concentrations (final volume is 100 μl per well). Solid compounds were first dissolved in DMSO, then the solution was diluted with DMSO to necessary concentration, mixed with equal volume of growth medium and was transferred to cell plates. The final compound concentrations of compounds was 0.5 nM to 10 μM. DMSO at same percentage is used as control. After compound was incubated with cells for 3 days, the numbers of active cells are measured. It was achieved by removing old medium, addition of 100 μl of fresh medium and 20 μl MIT solution containing 5 mg/ml PBS. Plates was incubated for 2 h at 37° C., then 100 μl DMSO was added at each well and stirred for 1 min. Then the absorbance was measured at 570 nm and percent of proliferation inhibition related to the control (without testing compounds) was determined.

Cc1ccc(C(=O)Nc2ccc(CN3CCN(C)CC3)c(C(F)(F)F)c2)cc1C#Cn1cnc2ccccc21
pIC50: > 7.00
